Literature values as cited in publication PMC10454243, “Anticancer Study of a Novel Pan-HDAC Inhibitor MPT0G236 in Colorectal Cancer Cells” (International Journal of Molecular Sciences, 2023).

Tested on: HDAC8
Conditions: Class I; ref Reaction Biology Corporation website; cited from earlier work

O=C(CCCCCCC(=O)Nc1ccccc1)NO [SAHA, Suberoylanilide hydroxamic acid, reference compound]
IC50: 306 nM
